SMILES strings stand for the structures.

The chains behind the UniProt entries cited, without tags or fusion partners.
UniProt Q60492, whole entry: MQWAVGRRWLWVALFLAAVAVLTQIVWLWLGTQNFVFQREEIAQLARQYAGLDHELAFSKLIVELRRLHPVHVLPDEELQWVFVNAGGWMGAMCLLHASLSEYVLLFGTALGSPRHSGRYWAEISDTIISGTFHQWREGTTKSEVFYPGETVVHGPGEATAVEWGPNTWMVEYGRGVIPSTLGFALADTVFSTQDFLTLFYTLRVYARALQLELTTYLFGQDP

The assay has as its target sigma1 receptor in guinea pig liver membranes (Cavia porcellus, UniProt Q60492). As to the kind of experiment: Saturation equilibrium binding of [3H]-.

For `CC(C)=CCN1CC[C@]2(C)c3cc(O)ccc3C[C@H]1[C@H]2C` [[^3H]-(+)-pentazocine], the “Bmax of [3H]-(+)-pentazocine” value (guinea pig liver membranes, no added sphingosine) turned out to be 13.4 ± 0.7 pM/mg. Further, where the note is “in presence of 1 and 5 µM sphingosine”, the “Bmax of [3H]-(+)-pentazocine binding” value is “not significantly altered”.

The values above are taken from paper PMC3194046 (European journal of pharmacology, 2009).
